The data set can be described thus: Water solubility of MSM. It counts as physicochemical. Conditions: room temperature. An excerpt:
MSM is structurally related to dimethyl sulfoxide (DMSO), but the behavior of these two is different. […] MSM is well known as a nutritional supplement and as a pharmaceutical agent (see, e.g., Jacob and Appleton, MSM; the definitive guide: A comprehensive review of the science and therapeutics of Methylsulfonylmethane, Topanga, Calif.: […] Altern. Complement. […] One of skill in the relevant art will be familiar with these uses. Various grades of MSM are available commercially (for example, OptiMSM® sold by Bergstrom Nutrition, Corp., Vancouver, Wash.); one of skill in the art will be familiar with a source of MSM. MSM is highly water soluble.

For `CS(C)(=O)=O` [MSM, Methylsulfonylmethane], the “aqueous solutions that can be prepared easily” value amounted to 20%.

These data come from US20130338130A1 (priority 2009, published 2013).
